# From publication PMC3479967, “Drug-Drug Interactions Potential of Icariin and Its Intestinal Metabolites via Inhibition of Intestinal UDP-Glucuronosyltransferases” (Evidence-based Complementary and Alternative Medicine : eCAM, 2012)
# Tests used:
# UGT1A6 = molecular target: T1, UGT1A6 (Homo sapiens, UniProt P19224); assay: Inhibition of recombinant UGT1A6 activity (4-MU glucuronidation); settings: read-out: IC50 for inhibition of UGT1A6 activity; recombinant human UGT1A6, 110 μM 4-MU, mean ± SD
# T1 sequence (P19224 27-532): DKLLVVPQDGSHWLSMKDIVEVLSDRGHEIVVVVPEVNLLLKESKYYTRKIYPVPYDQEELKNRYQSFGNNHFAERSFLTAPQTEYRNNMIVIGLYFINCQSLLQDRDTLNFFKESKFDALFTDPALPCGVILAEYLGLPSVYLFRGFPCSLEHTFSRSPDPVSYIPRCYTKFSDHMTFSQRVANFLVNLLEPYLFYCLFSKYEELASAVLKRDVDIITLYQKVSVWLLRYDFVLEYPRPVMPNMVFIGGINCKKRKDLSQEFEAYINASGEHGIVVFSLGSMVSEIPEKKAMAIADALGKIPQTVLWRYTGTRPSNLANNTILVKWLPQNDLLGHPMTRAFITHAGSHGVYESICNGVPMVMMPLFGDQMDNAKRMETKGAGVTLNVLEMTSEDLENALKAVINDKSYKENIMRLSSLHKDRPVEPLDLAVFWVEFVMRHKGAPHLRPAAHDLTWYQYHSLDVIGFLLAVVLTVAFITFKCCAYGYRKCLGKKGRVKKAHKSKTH
# Method: (§1) A panel of recombinant human UGT supersomes (UGT1A1, UGT1A3, UGT1A4, UGT1A6, UGT1A7, UGT1A8, UGT1A9, UGT1A10, UGT2B4, UGT2B7, UGT2B15, and UGT2B17) expressed in baculovirus-infected insect cells were purchased from BD Gentest Corp. (Woburn, MA, USA).
# (§2) 4-MU, a nonselective substrate of UGTs, was used as probe substrate for all UGTs except UGT1A4. Incubations with each individual enzyme were conducted using conditions previously described. There was a 5 min preincubation step at 37°C before the reaction was started by addition of UDPGA. The incubation mixtures were then centrifuged at 20,500 ×g for 15 min to obtain the supernatant. Aliquots (20 μL) were then analyzed by HPLC. The HPLC system (SHIMADZU, Kyoto, Japan) consisted of an SCL-10A system controller, two LC-10AT pumps, a SIL-10A auto injector, and a SPD-10AVP UV detector. Chromatographic separation was achieved using a Kromasil ODS column (4.6 × 150 mm I.D., 5 μm particle size) at a flow rate of 1 mL/min and UV detection at 316 nm. The mobile phase consisted of 10 mM KH2PO4, pH 2.7 (A) and acetonitrile (B). […]
# (§3) Inhibition data from experiments were graphically represented by Dixon plots. K i values were calculated by nonlinear regression using the equations for competitive inhibition (1), noncompetitive inhibition (2), or mixed inhibition (3), [22] […]
# UGT2B4 = molecular target: T2, UGT2B4 (Homo sapiens, UniProt P06133); assay: Inhibition of recombinant UGT2B4 activity (4-MU glucuronidation); settings: read-out: IC50 for inhibition of UGT2B4 activity; recombinant human UGT2B4, 1200 μM 4-MU, mean ± SD
# T2 sequence (P06133 24-528): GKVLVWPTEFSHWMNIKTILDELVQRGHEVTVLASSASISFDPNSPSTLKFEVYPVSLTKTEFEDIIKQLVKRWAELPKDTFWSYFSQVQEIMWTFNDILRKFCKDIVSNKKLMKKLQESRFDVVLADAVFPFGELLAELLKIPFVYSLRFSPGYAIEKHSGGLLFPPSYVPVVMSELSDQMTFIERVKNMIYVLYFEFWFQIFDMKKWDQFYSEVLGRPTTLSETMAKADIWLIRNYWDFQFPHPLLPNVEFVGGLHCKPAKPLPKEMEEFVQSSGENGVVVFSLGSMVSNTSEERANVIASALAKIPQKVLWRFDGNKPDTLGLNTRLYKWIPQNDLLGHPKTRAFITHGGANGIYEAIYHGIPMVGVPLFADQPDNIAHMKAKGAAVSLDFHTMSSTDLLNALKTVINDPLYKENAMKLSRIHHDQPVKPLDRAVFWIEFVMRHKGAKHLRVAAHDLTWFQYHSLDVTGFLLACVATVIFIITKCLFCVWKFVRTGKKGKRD
# Method: as §1, §2, §3
substance,measurement,setting,value
Icariside II,IC50,UGT1A6,> 100 µM
same,IC50,UGT2B4,> 100 µM
